Test results from publication PMC3260246, “Hydroimidazolone Modification of the Conserved Arg12 in Small Heat Shock Proteins: Studies on the Structure and Chaperone Function Using Mutant Mimics” (PLoS ONE, 2012).

Biological target: the molecule itself
Test: multi-angle light scattering; molar mass and hydrodynamic radius of wild-type and R12A proteins, ASTRA 5.3.4; conditions as in refs 32, 58

B1: wild-type human αA-crystallin (natural protein, UniProt P02489 1-173, looked up)
chain: MDVTIQHPWFKRTLGPFYPSRLFDQFFGEGLFEYDLLPFLSSTISPYYRQSLFRTVLDSGISEVRSDRDKFVIFLDVKHFSPEDLTVKVQDDFVEIHGKHNERQDDHGYISREFHRRYRLPSNVDQSALSCSLSADGMLTFCGPKIQTGLDATHAERAIPVSREEKPTSAPSS
notes: αA-crystallin, human; The reverse primer carries no stop codon; Large oligomer (molar mass about 4.8e5 g/mol by light scattering); also called αAWt; Wt αA-crystallin; source: E. coli BL21(DE3), purified (gel filtration, ion-exchange chromatography)
B1: binds.
